# In patent US4447608A (dated 1984):
# System: L1210 tumour
# Experiment: Treatment of L1210 ascitic tumour-bearing mice, survival
# Settings: single doses up to 160 mg/Kg i.p.
structure (smiles),measurement,value
"C#CCN(Cc1ccc2nc(N)nc(O)c2c1)c1ccc(C(=O)N[C@@H](CCC(=O)O)C(=O)O)cc1 [CB 3717, N-(4-(N-((2-amino-4-hydroxy-6-quinazolinyl)methyl)prop-2-ynylamino)benzoyl)-L-glutamic acid]",therapeutic effect of single doses,very little therapeutic effect
